The record followed here is ChEMBL document CHEMBL1149301, “Benzoyl ring halogenated classical 2-amino-6-methyl-3,4-dihydro-4-oxo-5-substituted thiobenzoyl-7H-pyrrolo[2,3-d]pyrimidine antifolates as inhibitors of thymidylate synthase and as antitumor agents” (J Med Chem, 2004).

The chains behind the UniProt entries cited, without tags or fusion partners.
UniProt C3SWJ7, whole entry: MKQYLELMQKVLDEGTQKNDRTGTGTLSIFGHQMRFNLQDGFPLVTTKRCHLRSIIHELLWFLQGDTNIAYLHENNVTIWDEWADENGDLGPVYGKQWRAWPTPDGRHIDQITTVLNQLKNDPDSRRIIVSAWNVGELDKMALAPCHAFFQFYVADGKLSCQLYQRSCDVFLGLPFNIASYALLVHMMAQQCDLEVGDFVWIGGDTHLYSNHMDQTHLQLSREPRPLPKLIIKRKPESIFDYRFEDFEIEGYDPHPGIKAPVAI

pIC50: −log10 of the molar value.

In this assay the target is Thymidylate synthase (Escherichia coli, UniProt C3SWJ7). The assay can be described thus: Inhibition of Escherichia coli thymidylate synthase.

Broadly, the pIC50 is the negative decadic logarithm of the IC50, by convention in mol/L. Low values mean a high IC50, high ones a low IC50. Regarding `Cc1nc2ccc(CN(C)c3ccc(C(=O)N[C@@H](CCC(=O)O)C(=O)O)s3)cc2c(=O)[nH]1` [RALTITREXED], the pIC50 is 5.24.
